From patent US5534525A
pIC50: −log10 of the molar value.

Amino acid sequences for entries named in this document (tags omitted).
UniProt P21452, whole entry: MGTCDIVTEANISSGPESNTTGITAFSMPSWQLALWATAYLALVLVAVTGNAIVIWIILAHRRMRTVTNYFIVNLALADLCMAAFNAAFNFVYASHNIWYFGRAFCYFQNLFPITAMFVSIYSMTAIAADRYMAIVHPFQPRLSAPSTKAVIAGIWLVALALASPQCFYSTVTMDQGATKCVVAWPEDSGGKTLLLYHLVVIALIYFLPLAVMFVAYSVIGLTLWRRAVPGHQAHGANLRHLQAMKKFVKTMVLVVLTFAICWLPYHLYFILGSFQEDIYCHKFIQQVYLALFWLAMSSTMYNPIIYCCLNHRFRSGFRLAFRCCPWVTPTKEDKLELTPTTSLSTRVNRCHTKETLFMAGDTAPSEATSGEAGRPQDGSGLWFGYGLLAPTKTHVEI

Biological target: human NK2 receptor (Homo sapiens, UniProt P21452)
Assay: Neurokinin A (NKA) Receptor-binding Assay (Test A)
Details: read-out: IC50 versus ^3 H-NKA binding to MELM, human NK2 receptor expressed in Mouse Erythroleukemia (MEL) cells, initial use of this assay
Text: Neurokinin A (NKA) Receptor-binding Assay (Test A)
It will be appreciated that the implications of a Compound's activity in Test A or Test B is not limited to asthma, but rather, that the test provides evidence of general antagonism of NKA. […] In Test B, a pKB of 5 or greater was typically measured for a Compound of the invention. It should be noted that there may not always be a direct correlation between the activities of Compounds measured as Ki values in Test A and the values measured in other assays, such as the pKB measured in Test B.

pIC50: 7.52
Compound: CSCC[C@@H]1NC(=O)[C@H](CC(C)C)NC(=O)CNC(=O)[C@H](Cc2ccccc2)NC(=O)[C@H](Cc2c[nH]c3ccccc23)NC(=O)[C@H](CCC(N)=O)NC1=O
